The values below come from patent US9409961B2, “Cell penetrating peptides to target EIF4E” (Hoffmann-La Roche Inc., priority 2012, dated 2016).

Protein sequences, listed by entry. Tags and fused reporters are not part of them. Chains listed by the source or under a name are the forms on record and can include a tag or linker.
UniProt P06730, with tags, fused parts or gaps: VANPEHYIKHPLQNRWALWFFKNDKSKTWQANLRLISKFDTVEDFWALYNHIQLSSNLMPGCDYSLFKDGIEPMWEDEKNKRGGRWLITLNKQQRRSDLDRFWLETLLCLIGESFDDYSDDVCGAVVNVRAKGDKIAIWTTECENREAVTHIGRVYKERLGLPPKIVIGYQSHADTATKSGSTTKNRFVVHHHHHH

For one data set, the target named is T1, human eIF4E (Homo sapiens, UniProt P06730).
T1 construct: made in house
As to the kind of experiment: biochemical assay of peptide binding to human eIF4E (displacement of biotin labeled 4G2 peptide). On the procedure: A biochemical assay was run to test peptide binding to human eIF4E.
Human eIF4E (aa 28-217, SEQ ID NO: 87) with a C-terminal His tag (HH-eIF4E, SEQ ID NO: 88) was expressed in E. coli in inclusion bodies. The protein was solubilized with 8 M urea and purified under denaturing conditions using nickel-charged HisTrap HP columns (GE Healthcare). The protein was refolded by diluting to approximately 0.25 mg/mL with 6 M urea, 20 mM Hepes pH 7.0, 500 mM NaCl, 1 mM DTT, 1 mM EDTA, and 0.5 M arginine.HCl, and then dialyzing overnight into the same buffer without the urea. The protein was further dialyzed into 20 mM Hepes pH 6.5, 50 mM NaCl, 1 mM EDTA, and 1 mM DTT, filtered, and then concentrated using Hitrap SP sepharose FF columns (GE Healthcare). The protein was dialyzed into 20 mM Hepes pH 7.0, 500 mM NaCl, 5 mM DTT, and 10% glycerol and stored at −80° C. until use.
Test peptides (1.6 mM stock in DMSO) were diluted 3 fold in series in DMSO and solutions were diluted 4 fold in Assay Buffer (50 mM NaPi, pH 6.5, 50 mM KCl, 1 mM DTT, 0.004% NP40 and 0.5 mg/ml gammaglobulin). Six microliters per well of diluted peptide solutions and 12 microliters per well of 187.5 nM HH-eIF4E in Assay Buffer were added to 384-well polypropylene microplates (Matrix, Thermal Scientific). Twelve microliters per well of 187.5 nM biotin labeled 4G2 peptide (Ac-[…]Aha-Bio)-NH2 (SEQ ID NO: 91) 1:2 TFA) in Assay Buffer was added. The samples were incubated at room temperature for 20 minutes.
Six microliters per well of 4.8 nM Eu-streptavidin (Columbia Biosciences) and 48 nM Allophycocyanin-anti His antibody (Columbia Biosciences) in Assay Buffer (without DTT) were then added and the samples were incubated at room temperature for 30 min. Assay signals were monitored by reading emission fluorescence at 665 nm on an Envision Reader (PerkinElmer Life and Analytical Sciences). IC50 values were calculated using Condoseo software (Genedata AG, Basel, Switzerland).

Data set [1] can be described thus: stability in human plasma. Format: in vitro ADME. To be noted: pH 7.4, Conc. 10 uM, 37° C. As to the method:
(§1) The following study was conducted to assess the stability of the compound of Examples 2-4 (SEQ ID NOS: 9, 10 and 11) in Hannover Wistar rat and human plasma after 4 and 24 hours. Approximately, 2.0 mg of the compound of Examples 2-4 (SEQ ID NOS 9, 10 and 11) was weighed out and placed in a 4 mL amber vial. To this was added 1.0 mL DMSO. The vial was carefully vortexed to produce a solution of approximately 600 μM.
(§2) Hannover Wistar rat plasma and human plasma (anti-coagulant sodium EDTA) were pre-warmed to 37° C. for 30 minutes in a water bath. The pH of both plasmas was adjusted to pH7.4. 1.5 mL microcentrifuge vials were used.
(§3) The stock solution of the compound of Examples 2-4 was diluted into rat or human plasma to a final concentration of 10 μM. The two vials were gently vortexed ensuring proper mixing.
(§4) Six new vials were labeled as follows: rat T0, rat T4, rat T24, human T0, human T4, human T24. To each of these vials, 50 μL of treated plasma was added. The T4 and T24 vials were capped and placed in a 37° C. incubator for 4 and 24 hours, respectively.
(§5) To each of the two T0 vials, 50 μL of Sorensen buffer and 200 μL 1.0% acetic acid in acetonitrile were added. […]
(§6) All samples were analyzed by LC/MS/MS. […] The percent of compound remaining at each time point as compared with the amount present in the comparison T0 sample was calculated.

A short description of the next data set: stability in rat plasma. The data set is classed as in vitro ADME. As to conditions: Hannover Wistar, pH 7.4, Conc. 10 uM, 37° C. On the procedure: as §1, §2, §3, §4, §5, §6
Where [2] appears, read: IC50 (μM), Table 1, peptides which bind eIF4E but are not cell-penetrating.
Where [3] appears, read: IC50 (μM), Table 2a, cell penetrating peptides with the Y----LL-F and YWLLALFVY motifs.

For `CCCC[C@H](NC(=O)[C@H](Cc1ccccc1)NC(=O)[C@H](CCC(N)=O)NC(=O)[C@H](Cc1ccccc1)NC(=O)[C@H](CC(=O)O)NC(=O)[C@H](CC(C)C)NC(=O)[C@H](CC(C)C)NC(=O)[C@H](Cc1ccccc1)NC(=O)[C@H](CCC(N)=O)NC(=O)[C@H](CCCNC(=N)N)NC(=O)[C@H](CC(N)=O)NC(=O)[C@H](Cc1ccc(O)cc1)NC(C)=O)C(N)=O` [SEQ ID NO: 75, Ac-Tyr-Asn-Arg-Gln-Phe-Leu-Leu-Asp-Phe-Gln-Phe-Nle-NH2], the half-inhibitory concentration (IC50) (commonly the point on the concentration scale where inhibition reaches its midpoint) at human eIF4E (setting [2]) is 11 µM.
On human eIF4E (setting [3]), `CSCC[C@H](NC(C)=O)C(=O)N[C@@H](C)C(=O)N[C@@H](CC(N)=O)C(=O)N[C@@H](CC(C)C)C(=O)N[C@@H](C)C(=O)N[C@@H](Cc1ccc(O)cc1)C(=O)N[C@@H](Cc1c[nH]c2ccccc12)C(=O)N[C@@H](CC(C)C)C(=O)N[C@@H](CC(C)C)C(=O)N[C@@H](C)C(=O)N[C@@H](CC(C)C)C(=O)N[C@@H](Cc1ccccc1)C(=O)N[C@H](C(=O)N[C@@H](Cc1ccc(O)cc1)C(=O)N[C@@H](CCSC)C(=O)N[C@@H](Cc1ccc2ccccc2c1)C(=O)N[C@H](C(=O)N[C@@H](CC(=O)O)C(=O)N[C@@H](CC(C)C)C(=O)N[C@@H](CCCNC(=N)N)C(=O)N[C@@H](CC(C)C)C(=O)N[C@@H](Cc1ccccc1)C(=O)N[C@@H](CCCCN)C(=O)N[C@@H](CCCCN)C(=O)N[C@@H](CCCNC(=N)N)C(=O)N1CCC[C@H]1C(=O)N[C@@H](CCCCN)C(=O)N1CCC[C@H]1C(N)=O)[C@@H](C)O)C(C)C` [SEQ ID NO: 44, Ac-Met-Ala-Asn-Leu-Ala-Tyr-Trp-Leu-Leu-Ala-Leu-Phe-Val-Tyr-Met-2Nal-Thr-Asp-Leu-Arg-Leu-Phe-Lys-Lys-Arg-Pro-Lys-Pro-NH2] came in with an IC50 of 2.15 µM.
On human eIF4E (setting [3]), `CSCC[C@H](NC(C)=O)C(=O)N[C@@H](C)C(=O)N[C@@H](CCCCN)C(=O)N[C@@H](CC(C)C)C(=O)N[C@@H](CCCCN)C(=O)N[C@@H](Cc1ccc(O)cc1)C(=O)N[C@@H](Cc1c[nH]c2ccccc12)C(=O)N[C@@H](CC(C)C)C(=O)N[C@@H](CC(C)C)C(=O)N[C@@H](C)C(=O)N[C@@H](CC(C)C)C(=O)N[C@@H](Cc1ccccc1)C(=O)N[C@H](C(=O)N[C@@H](Cc1ccc(O)cc1)C(=O)N[C@@H](CCSC)C(=O)N[C@@H](Cc1c[nH]c2ccccc12)C(=O)N[C@H](C(=O)N[C@@H](CC(=O)O)C(=O)N[C@@H](CC(C)C)C(=O)N[C@@H](CC(C)C)C(=O)N[C@@H](CC(C)C)C(=O)N[C@@H](CC(C)(C)C)C(=O)N[C@@H](CCCCN)C(=O)N[C@@H](CCCCN)C(=O)N[C@@H](CCCNC(=N)N)C(=O)N1CCC[C@H]1C(=O)N[C@@H](CCCCN)C(=O)N1CCC[C@H]1C(N)=O)[C@@H](C)O)C(C)C` [SEQ ID NO: 30] showed an IC50 of 2.24 µM. The IC50 values of the last two compounds are within 1.5-fold of each other.
In the case of `CSCC[C@H](NC(C)=O)C(=O)N[C@@H](C)C(=O)N[C@@H](CC(N)=O)C(=O)N[C@@H](CC(C)C)C(=O)N[C@@H](C)C(=O)N[C@@H](Cc1ccc(O)cc1)C(=O)N[C@@H](Cc1c[nH]c2ccccc12)C(=O)N[C@@H](CC(C)C)C(=O)N[C@@H](CC(C)C)C(=O)N[C@@H](C)C(=O)N[C@@H](CC(C)C)C(=O)N[C@@H](Cc1ccccc1)C(=O)N[C@H](C(=O)N[C@@H](Cc1ccc(O)cc1)C(=O)N[C@@H](CCSC)C(=O)N[C@@H](Cc1c[nH]c2ccccc12)C(=O)N[C@H](C(=O)N[C@@H](CC(=O)O)C(=O)N[C@@H](CC(C)C)C(=O)N[C@@H](CCCNC(=N)N)C(=O)N[C@@H](CC(C)C)C(=O)N[C@@H](CC(C)(C)C)C(=O)N[C@@H](CCCCN)C(=O)N[C@@H](CCCCN)C(=O)N[C@@H](CCCNC(=N)N)C(=O)N1CCC[C@H]1C(=O)N[C@@H](CCCCN)C(=O)N1CCC[C@H]1C(N)=O)[C@@H](C)O)C(C)C` [SEQ ID NO: 11], the amount remaining at 4 h, 10 µM in data set [1] (4 hr) worked out at 103%; in the data set “stability in rat plasma” (4 hr), 89.4%. Also, the amount remaining at 24 h, 10 µM came to 77% in data set [1] (24 hr) and 24.2% in the data set “stability in rat plasma” (24 hr). For the same compound, the concentration for half-maximal inhibition (IC50) at human eIF4E (Binding affinities expressed as IC50, HH-eIF4E, biotin labeled 4G2 peptide) is 2.37 µM; on human eIF4E (setting [3]), 2.37 µM.
On to `CSCC[C@H](NC(C)=O)C(=O)N[C@@H](C)C(=O)N[C@@H](CC(N)=O)C(=O)N[C@@H](CC(C)C)C(=O)N[C@@H](C)C(=O)N[C@@H](Cc1ccc(O)cc1)C(=O)N[C@@H](Cc1c[nH]c2ccccc12)C(=O)N[C@@H](CC(C)C)C(=O)N[C@@H](CC(C)C)C(=O)N[C@@H](C)C(=O)N[C@@H](CC(C)C)C(=O)N[C@@H](Cc1ccccc1)C(=O)N[C@H](C(=O)N[C@@H](Cc1ccc(O)cc1)C(=O)N[C@@H](CCSC)C(=O)N[C@@H](Cc1cccc2ccccc12)C(=O)N[C@H](C(=O)N[C@@H](CC(=O)O)C(=O)N[C@@H](CC(C)C)C(=O)N[C@@H](CCCNC(=N)N)C(=O)N[C@@H](CC(C)C)C(=O)N[C@@H](Cc1ccccc1)C(=O)N[C@@H](CCCCN)C(=O)N[C@@H](CCCCN)C(=O)N[C@@H](CCCNC(=N)N)C(=O)N1CCC[C@H]1C(=O)N[C@@H](CCCCN)C(=O)N1CCC[C@H]1C(N)=O)[C@@H](C)O)C(C)C` [SEQ ID NO: 43, Ac-Met-Ala-Asn-Leu-Ala-Tyr-Trp-Leu-Leu-Ala-Leu-Phe-Val-Tyr-Met-1Nal-Thr-Asp-Leu-Arg-Leu-Phe-Lys-Lys-Arg-Pro-Lys-Pro-NH2], for which, at human eIF4E (setting [3]), the IC50 was determined as 2.59 µM. In other words, the single-digit micromolar range.
Compound `CCCC[C@H](NC(=O)[C@H](Cc1ccccc1)NC(=O)[C@H](CCC(N)=O)NC(=O)[C@H](Cc1ccccc1)NC(=O)[C@H](CC(=O)O)NC(=O)[C@H](CC(C)C)NC(=O)[C@H](CC(C)C)NC(=O)[C@H](Cc1ccccc1)NC(=O)[C@H](CCC(N)=O)NC(=O)[C@H](CCCNC(=N)N)NC(=O)[C@H](CC(=O)O)NC(=O)[C@H](Cc1ccc(O)cc1)NC(C)=O)C(N)=O` [SEQ ID NO: 71, Ac-Tyr-Asp-Arg-Gln-Phe-Leu-Leu-Asp-Phe-Gln-Phe-Nle-NH2] had an IC50 on human eIF4E (setting [2]) of 11 µM. This lies in the double-digit micromolar range.
Turning to `CCCC[C@H](NC(=O)[C@@H](NC(=O)[C@H](CCCCN)NC(=O)[C@H](CO)NC(=O)[C@H](CCCCN)NC(=O)[C@H](Cc1ccc(O)cc1)NC(=O)[C@H](CCSC)NC(C)=O)[C@@H](C)CC)C(=O)N[C@@H](CC(C)C)C(=O)N[C@@H](Cc1c[nH]c2ccccc12)C(=O)N[C@@H](Cc1ccccc1)C(=O)N[C@@H](CC(C)C)C(=O)N[C@H](C(=O)N[C@@H](CC(C)C)C(=O)N[C@@H](Cc1ccccc1)C(=O)N[C@H](C(=O)N[C@@H](C)C(=O)N[C@@H](CCSC)C(=O)N[C@@H](Cc1c[nH]c2ccccc12)C(=O)N[C@@H](CO)C(=O)N[C@@H](CC(=O)O)C(=O)N[C@H](C(=O)N[C@@H](CCCCN)C(=O)N[C@@H](CC(C)C)C(=O)N[C@@H](CCCCN)C(=O)N[C@@H](CCCCN)C(=O)N[C@@H](CCCCN)C(=O)N[C@@H](CCCNC(=N)N)C(=O)N1CCC[C@H]1C(=O)N[C@@H](CCCCN)C(=O)N1CCC[C@H]1C(N)=O)C(C)C)C(C)C)C(C)C` [SEQ ID NO: 46], the IC50 on human eIF4E (IC50 (μM), Table 3, cell-penetrating peptides without the Y----LL-F motif) stood at 6.38 µM.
